In patent US5098996A, “Process for introducing fluorine into biologically active materials” (The United States of America as represented by the …, priority 1988, dated 1992) one finds Ki data, which are given here for three molecules.

Protein sequences, listed by entry. Tags and fused reporters are not part of them.
UniProt P25099, whole entry: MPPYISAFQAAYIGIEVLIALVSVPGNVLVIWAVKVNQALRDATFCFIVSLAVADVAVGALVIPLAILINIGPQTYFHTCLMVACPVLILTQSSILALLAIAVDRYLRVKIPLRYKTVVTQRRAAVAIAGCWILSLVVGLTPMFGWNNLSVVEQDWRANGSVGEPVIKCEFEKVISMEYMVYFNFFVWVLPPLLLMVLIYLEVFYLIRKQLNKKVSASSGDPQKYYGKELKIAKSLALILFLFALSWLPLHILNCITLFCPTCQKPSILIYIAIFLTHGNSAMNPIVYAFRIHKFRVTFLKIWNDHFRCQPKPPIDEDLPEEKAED

One may read the Ki as the equilibrium dissociation constant of an inhibitor or competing ligand from its target.

In this test the target is A1 adenosine receptor (Rattus norvegicus, UniProt P25099). As to the kind of experiment: competitive binding assay, A1 adenosine receptor, rat brain membranes ([3H]-N6-phenylisopropyladenosine radiotracer). To be noted: read-out: Ki-value in competitive binding assay.
In the case of `O=C(Cc1ccc(NC(=O)Cc2ccc(Nc3ncnc4c3ncn4[C@@H]3O[C@H](CO)[C@@H](O)[C@H]3O)cc2)cc1)NCCNC(=O)c1ccc(CF)cc1`, the Ki is 10 nM. The result for `O=C(Cc1ccc(NC(=O)Cc2ccc(Nc3ncnc4c3ncn4[C@@H]3O[C@H](CO)[C@@H](O)[C@H]3O)cc2)cc1)NCCNCCNC(=O)c1ccc(CF)cc1` reads 3 nM; that for `CCCn1c(=O)c2[nH]c(-c3ccc(OCC(=O)NCCNC(=O)c4ccc(CF)cc4)cc3)nc2n(CCC)c1=O`, 12 nM.
